Molecular target: Smurf-1 (Homo sapiens (Human), UniProt Q9HCE7)
Experiment: HECT E3 ligase autoubiquitinylation TR-FRET assay (Smurf-1)
Format: biochemical
Conditions: 8-point dose-response curve, 3 nM to 10 uM; 45 min incubation
Description: To determine the HECT E3 ligase selectivity of the compounds, a panel of biochemical HECT E3 ligase autoubiquitinylation assays was employed (Smurf-1, Smurf-2, WWP1, WWP2, ITCH, Nedd4, Nedd4L and E6AP). The conjugation of ubiquitin to a protein substrate is a multistep process. In an initial ATP-requiring step, a thioester bond is formed between the carboxyl terminus of ubiquitin and an internal cystein residue of the ubiquitin-activating enzyme (E1). Activated ubiquitin is then transferred to a specific cystein residue of an ubiquitin-conjugating enzyme (E2). E2s donate ubiquitin to a HECT E3 ligase (E3) from which it is transferred to the substrate protein. HECT E3 ligases can auto-ubiquitinylate. This event is detected in the TR-FRET (Time-Resolved Fluorescence Resonance Energy Transfer) assay used in this panel. The reaction mix contains E1, E2, tagged-E3, biotin-conjugated ubiquitin, the compound and ATP in a suitable buffer and is incubated for 45 minutes to allow auto-ubiquitinylation of the E3 ligase. […] When these two fluorophores are brought together by a bimolecular interaction (in this case ubiquitinylation of the E3 ligase), a portion of the energy captured by the Cryptate during excitation is released through fluorescence emission at 620 nm, while the remaining energy is transferred to XL665. This energy is then released by XL665 as specific fluorescence at 665 nm. […]

The chains behind the UniProt entries cited, without tags or fusion partners.
UniProt Q9HCE7, whole entry: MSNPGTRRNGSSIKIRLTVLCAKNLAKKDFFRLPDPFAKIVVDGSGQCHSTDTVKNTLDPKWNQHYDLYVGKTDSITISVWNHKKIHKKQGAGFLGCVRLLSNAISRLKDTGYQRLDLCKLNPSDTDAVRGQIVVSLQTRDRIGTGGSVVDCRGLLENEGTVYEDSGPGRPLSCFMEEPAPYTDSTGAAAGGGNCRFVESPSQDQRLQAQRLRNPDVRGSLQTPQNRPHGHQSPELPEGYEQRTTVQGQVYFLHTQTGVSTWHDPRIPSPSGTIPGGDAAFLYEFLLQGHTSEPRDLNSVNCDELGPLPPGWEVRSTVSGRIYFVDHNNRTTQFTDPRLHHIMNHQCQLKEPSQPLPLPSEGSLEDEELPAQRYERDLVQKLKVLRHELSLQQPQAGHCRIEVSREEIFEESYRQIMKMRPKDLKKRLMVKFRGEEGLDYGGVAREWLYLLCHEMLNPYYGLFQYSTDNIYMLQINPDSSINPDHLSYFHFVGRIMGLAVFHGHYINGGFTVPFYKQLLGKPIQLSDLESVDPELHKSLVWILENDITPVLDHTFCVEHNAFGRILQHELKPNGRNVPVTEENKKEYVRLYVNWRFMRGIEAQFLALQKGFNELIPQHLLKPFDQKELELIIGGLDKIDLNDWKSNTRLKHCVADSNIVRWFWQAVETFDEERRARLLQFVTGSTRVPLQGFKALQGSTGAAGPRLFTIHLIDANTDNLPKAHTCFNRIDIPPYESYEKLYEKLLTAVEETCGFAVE

N-(2-Cyclohexyl-1,5-dimethyl-3-oxo-2,3-dihydro-1H-pyrazol-4-yl)-4-methyl-5-((2S,5R)-5-methyltetrahydro-2H-pyran-2-yl)isoxazole-3-carboxamide and N-(2-Cyclohexyl-1,5-dimethyl-3-oxo-2,3-dihydro-1H-pyrazol-4-yl)-4-methyl-5-((2R,5S)-5-methyltetrahydro-2H-pyran-2-yl)isoxazole-3-carboxamide [Example 22c]
IC50: 1.4 nM

Reference: patent US9403810B2, “Carboxamide derivatives” (Novartis AG, priority 2014, dated 2016)
